This test deals with Alkaline phosphatase, placental type (Homo sapiens) (UniProt P05187). Briefly: PLAP enzyme activators, biochemical, luminescence, HTS (AID 696). The conditions noted are these: purified PLAP enzyme, luminescent substrate read-out.

Amino acid sequences for entries named in this document (tags omitted). A change or cut given only in a name is not applied to a line headed by its entry.
UniProt P05187: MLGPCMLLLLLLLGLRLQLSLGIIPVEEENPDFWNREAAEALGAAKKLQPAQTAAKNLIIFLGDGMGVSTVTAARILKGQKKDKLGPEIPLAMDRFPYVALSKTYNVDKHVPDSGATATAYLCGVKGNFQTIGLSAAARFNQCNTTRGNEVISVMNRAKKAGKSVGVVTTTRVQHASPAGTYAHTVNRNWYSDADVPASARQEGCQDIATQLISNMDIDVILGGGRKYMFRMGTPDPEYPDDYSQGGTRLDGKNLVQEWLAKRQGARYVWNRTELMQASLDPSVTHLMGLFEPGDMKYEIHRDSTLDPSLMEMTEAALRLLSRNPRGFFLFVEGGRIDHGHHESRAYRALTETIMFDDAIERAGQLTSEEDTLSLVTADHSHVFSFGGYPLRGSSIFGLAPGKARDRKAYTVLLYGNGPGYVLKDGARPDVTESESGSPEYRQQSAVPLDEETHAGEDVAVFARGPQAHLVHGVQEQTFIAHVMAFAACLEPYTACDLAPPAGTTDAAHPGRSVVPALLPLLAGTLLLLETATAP

Molecules are shown by their SMILES.

Take `COc1ccc2c(c1OC)C(=O)OC2CC(=O)c1ccc(O)c(O)c1` (stereo unspecified): the concentration giving a half-maximal response (EC50) was 25.3 µM.

(Values after PubChem BioAssay AID696 (Sanford-Burnham Center for Chemical Genomics, 2007).)
